# Binding of CDR-mutated scFvs to a peptide of the spike HR2 region

All variants were tested on one target, the spike HR2 peptide PDVDLGDISGINAS (SARS-CoV-2).

Each scFv is VH, a (GGGGS)3 linker, VL, as in the parent Ab-14, and differs from it in the CDRs of the light chain only.
VH: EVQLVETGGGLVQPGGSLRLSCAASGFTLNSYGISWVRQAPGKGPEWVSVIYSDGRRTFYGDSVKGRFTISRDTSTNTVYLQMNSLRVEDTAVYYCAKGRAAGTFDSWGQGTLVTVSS
VL: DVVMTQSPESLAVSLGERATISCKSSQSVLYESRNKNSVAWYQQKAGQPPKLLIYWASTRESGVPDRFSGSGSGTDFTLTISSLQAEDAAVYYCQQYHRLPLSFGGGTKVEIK

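The starting antibody came from a phage panning campaign against this peptide. The variants were designed computationally from a first round of random CDR variants and then made and measured. Their group label is 14L_Rand (Rand: our label for a block that the file lists under HC and that is probably the random mutants of the ten best first-round binders). In AlphaSeq, yeast of one mating type display the scFv and yeast of the other type display the target. Binding brings cells together so that they mate, and sequencing counts the barcode pairs among the diploids. Each replicate has its own calibration line, from reference interactions of the BCL2 family. Mating was done six times.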

Positions count from residue 1 of the parent VL; S26G puts G in place of S.
Affinities are written as log10 Kd with Kd in nM; a lower number is a better binder.
"ND" marks a missing value. The strain was present, yet no cells mated with the target were sequenced in that replicate, which points to weak or no binding.
Background: pairings of all light chain designs with three empty control strains gave a value in 4% of cases (median 2.64, 5th percentile 1.59). Values in that range, when seen in few replicates, are hard to tell from nonspecific mating. Also given: how often the same scFv was detected with the empty control strains, with their mean in brackets.

changes	log10 Kd (nM) by replicate	control signals
S26G/Y31M/W56T/S62D	2.08 2.19 1.32 2.01 1.79 1.77	1 of 18 (2.63)
V29F/N35S/S38P/W56G/P101G	2.10 0.28 2.98 1.93 1.24 1.76	0 of 18
S28V/V29Y/W56G	1.02 0.53 0.00 0.54 0.26 0.73	0 of 18
S25F/N35T/A40D/W56N/S58Q	ND ND ND ND ND ND	0 of 18
V29F/K36A/W56G/P101T	2.70 3.61 3.29 2.26 2.00 1.81	0 of 18
K24H/Q27P/W56N/E61L	0.05 0.39 0.23 0.32 0.15 0.33	0 of 18
Y31F/N37D/W56D/T59Q	0.26 0.38 0.39 0.23 0.23 0.56	3 of 18 (2.53)
S25Q/Q27D/Y31Q/W56D/Q95S/P101T	0.91 1.81 0.86 1.44 1.41 2.02	0 of 18
V29F/W56H/A57L/R60S/P101T	ND ND ND ND ND ND	0 of 18
S26L/W56H/S62D/Q95P/Y97V	1.18 0.65 1.38 0.84 0.70 0.95	0 of 18
K24H/Q27P/L30A/W56N	0.17 -0.07 -0.20 -0.08 -0.16 -0.21	0 of 18
S25Q/W56D/Y97T	0.29 -0.01 -0.15 -0.14 0.09 0.08	0 of 18
S26L/S38R/W56H/E61M/S62D/L100N	ND ND ND ND ND ND	0 of 18
S26L/Q27W/R34N/S38P/W56H/S62D	3.24 1.43 0.59 1.03 0.99 2.69	1 of 18 (1.64)
S26G/S28G/S33Y/V39G/W56G	ND ND ND ND ND ND	0 of 18
S26G/S28G/N35V/V39E/W56G	ND ND ND ND ND ND	0 of 18
S26V/Y31F/E32W/K36I/W56D/S62Y	0.49 0.37 0.37 0.14 0.17 0.29	0 of 18
V29W/W56G/E61Y	1.46 1.51 1.83 1.26 1.23 1.67	0 of 18
S26L/S33E/N37C/W56H/S62D	1.39 0.56 1.11 0.62 0.71 1.08	0 of 18
S26G/S28G/S33Y/R34M/W56G/R60M	0.97 1.99 1.58 1.33 1.01 1.43	0 of 18
K24T/Q27P/S28V/S38R/W56N/T59N	1.87 2.46 ND ND ND 2.32	0 of 18
Q27I/V29Y/N37S/W56E/Q96T	1.57 1.85 1.65 1.47 2.60 1.11	2 of 18 (4.51)
S25N/Q27I/V29Y/S33E/W56E/L102K	ND ND 1.28 ND ND ND	0 of 18
V29F/W56G/E61T/P101T/S103W	ND ND ND ND ND ND	0 of 18
Q27I/V29Y/W56E/T59I	0.01 -0.39 0.02 -0.16 0.18 -0.08	1 of 18 (2.03)
S26L/W56H/S62D/Y97W	ND ND ND ND ND ND	0 of 18
Q27T/Y31F/W56D/A57Y	0.63 0.72 0.53 0.56 0.67 0.83	3 of 18 (2.90)
Y31F/W56D/E61S/Q95F/Q96C	ND ND 2.69 3.06 3.19 ND	2 of 18 (3.75)
Q27I/V29Y/Y31P/S33Y/N37D/W56E	0.52 ND 1.00 0.87 0.98 1.63	0 of 18
S25L/S26R/V29N/S38K	ND ND ND ND ND ND	1 of 18 (3.33)
S25F/L30W/N35T/S38A/W56N/Y97E	0.50 0.24 0.47 0.36 0.09 0.48	1 of 18 (2.50)
S26L/N37D/W56H/S62D	0.29 0.18 0.33 0.21 0.51 0.36	0 of 18
K24H/S25Q/Q27P/W56N/A57G/S62V/P101R	ND ND ND ND ND ND	0 of 18

Extract of 2 entries:

{"changes": "S26L/S38R/W56H/E61M/S62D/L100N", "log10 Kd (nM) by replicate": "ND ND ND ND ND ND", "control signals": "0 of 18"}
{"changes": "K24H/Q27P/W56N/E61L", "log10 Kd (nM) by replicate": "0.05 0.39 0.23 0.32 0.15 0.33", "control signals": "0 of 18"}

In the paper, a design with two or fewer of six values counts as a poor binder.
The parent sequence was in this pool as ten entries: three were never detected, three once, and four in most replicates, with averages from 0.34 to 2.37.
Values of this round are not directly comparable with the first-round values of the same sequences.

Reference: Li et al. 2023, doi:10.1038/s41467-023-39022-2. File: FLAb, binding data.